# Laboratory results taken from PubChem BioAssay AID588664 (The Scripps Research Institute Molecular Screening Center, 2011).
# Protein sequences, listed by entry. Tags and fused reporters are not part of them. Lines headed by an entry give the natural chain unless they say otherwise; changes in a name come on top.
# UniProt P00519, whole entry, looked up: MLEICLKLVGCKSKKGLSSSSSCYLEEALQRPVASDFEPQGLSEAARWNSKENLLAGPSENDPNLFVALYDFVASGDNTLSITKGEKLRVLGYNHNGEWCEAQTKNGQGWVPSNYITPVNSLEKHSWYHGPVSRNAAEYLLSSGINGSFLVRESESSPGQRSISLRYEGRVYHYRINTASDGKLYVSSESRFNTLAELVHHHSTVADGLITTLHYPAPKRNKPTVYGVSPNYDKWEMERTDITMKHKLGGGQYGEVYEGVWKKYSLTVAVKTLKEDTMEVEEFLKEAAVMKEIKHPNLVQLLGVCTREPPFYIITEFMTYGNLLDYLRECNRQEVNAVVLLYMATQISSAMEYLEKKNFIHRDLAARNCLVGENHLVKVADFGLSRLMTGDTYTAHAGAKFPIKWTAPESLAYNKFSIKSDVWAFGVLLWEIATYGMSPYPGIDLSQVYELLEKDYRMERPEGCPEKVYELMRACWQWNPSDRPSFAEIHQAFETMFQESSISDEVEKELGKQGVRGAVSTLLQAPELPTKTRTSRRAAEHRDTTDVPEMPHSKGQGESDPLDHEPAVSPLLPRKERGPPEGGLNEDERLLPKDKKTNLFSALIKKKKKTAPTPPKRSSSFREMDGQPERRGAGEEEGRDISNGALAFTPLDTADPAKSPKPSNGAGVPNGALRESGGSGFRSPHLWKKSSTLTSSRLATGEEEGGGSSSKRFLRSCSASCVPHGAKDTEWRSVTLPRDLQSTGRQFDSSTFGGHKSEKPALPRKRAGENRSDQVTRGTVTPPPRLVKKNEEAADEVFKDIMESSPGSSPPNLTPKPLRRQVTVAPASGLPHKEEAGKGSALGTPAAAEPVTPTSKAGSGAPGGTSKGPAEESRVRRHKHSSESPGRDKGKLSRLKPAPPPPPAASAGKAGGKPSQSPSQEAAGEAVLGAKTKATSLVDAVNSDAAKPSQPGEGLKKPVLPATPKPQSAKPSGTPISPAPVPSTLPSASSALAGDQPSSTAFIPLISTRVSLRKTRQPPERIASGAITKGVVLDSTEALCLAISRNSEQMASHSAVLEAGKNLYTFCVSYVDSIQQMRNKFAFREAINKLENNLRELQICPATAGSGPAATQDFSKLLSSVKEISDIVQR
# UniProt Q13671: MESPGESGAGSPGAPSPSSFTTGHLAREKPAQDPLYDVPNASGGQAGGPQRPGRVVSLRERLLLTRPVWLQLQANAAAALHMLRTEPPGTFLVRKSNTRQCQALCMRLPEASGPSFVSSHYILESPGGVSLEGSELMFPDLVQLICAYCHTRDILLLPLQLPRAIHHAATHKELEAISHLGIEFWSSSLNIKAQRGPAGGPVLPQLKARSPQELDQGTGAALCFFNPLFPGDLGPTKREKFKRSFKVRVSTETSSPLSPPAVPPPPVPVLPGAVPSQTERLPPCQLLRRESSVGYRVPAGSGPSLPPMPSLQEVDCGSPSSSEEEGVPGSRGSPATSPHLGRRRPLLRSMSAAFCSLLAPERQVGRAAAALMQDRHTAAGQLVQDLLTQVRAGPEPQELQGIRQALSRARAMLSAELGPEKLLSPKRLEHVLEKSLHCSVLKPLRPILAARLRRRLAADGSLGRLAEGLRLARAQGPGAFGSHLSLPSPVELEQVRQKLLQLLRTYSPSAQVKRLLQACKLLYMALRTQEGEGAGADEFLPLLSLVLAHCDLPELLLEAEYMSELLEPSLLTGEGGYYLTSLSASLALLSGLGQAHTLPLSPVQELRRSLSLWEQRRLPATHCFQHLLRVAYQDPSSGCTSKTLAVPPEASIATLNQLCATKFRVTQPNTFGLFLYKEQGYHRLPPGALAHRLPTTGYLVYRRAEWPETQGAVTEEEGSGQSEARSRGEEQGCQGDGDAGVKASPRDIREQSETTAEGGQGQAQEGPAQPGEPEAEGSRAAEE
# Only a part is listed here, and it is no random draw. Active and inactive are the calls of the source. Cut-off read from the data, not from the text of the source: active = inhibition above about 5% (passing the limit was not always enough); inactive = the rest.
# Target: Tyrosine-protein kinase ABL1 (Homo sapiens) + Ras and Rab interactor 1 (Homo sapiens) (UniProt P00519+Q13671)
# Test: inhibitors of Rin1-Abl protein binding, primary screen, biochemical, TR-FRET (AID 588664)
# Conditions: at 7.35 µM, stronger effect = higher value
row,Structure (SMILES),inhibition
1,O=C(O)CNc1ccc([As](=O)(O)O)cc1,inactive: 0.76%
2,O=[N+]([O-])c1cccc(NC2=NCC(CBr)S2)c1 (centres undefined),inactive: 0.2%
3,COC(=O)C1(C)COP(=O)(Nc2ccccc2)OC1 (centres undefined),inactive: 1.95%
4,O=[N+]([O-])c1ncn(CCn2ncnc2[N+](=O)[O-])n1,inactive: -0.02%
5,CC(C)(C)C(=O)NC(Sc1ccncn1)C(Cl)(Cl)Cl (centres undefined),inactive: 1.08%
6,O=C(Nc1cc([As](=O)(O)O)ccc1O)c1ccccc1,inactive: 2.27%
7,O=P1(N(CCCl)CCCl)OCCCS1 (centres undefined),inactive: 0.35%
8,c1cc(-c2nn[nH]n2)ccc1-c1nn[nH]n1,inactive: -2.6%
9,CC1CCN(C(=O)Oc2c(Cl)cc(Cl)c3cccnc23)CC1,inactive: -2.72%
10,CN(C)C(=O)OCCc1n(C)cc[n+]1C,inactive: -0.92%
11,CC(C)=N/N=C(\N)N[N+](=O)[O-],inactive: 0.84%
12,CC(C)c1nc(Nc2ccccc2)n(P(=O)(N(C)C)N(C)C)n1,inactive: -1.74%
13,CCN(/C(=N/P(=O)(N1CCOCC1)N1CCOCC1)N1CCOCC1)c1ccc(OC)cc1,inactive: 0.07%
14,C[N+]1=C2C=CC=CC=C2SC12C([N+](=O)[O-])=CC([N+](=O)[O-])=C[C-]2[N+](=O)[O-] (centres undefined),inactive: 4.21%
15,Nc1ccc([As](=O)(O)c2ccc(N)cc2)cc1,inactive: 1.99%
16,CCc1nc2c(n1)c1c(non1O)c1c2no[n+]1[O-],inactive: -5.14%
17,O=[N+]([O-])c1cc([N+](=O)[O-])c(CCNc2ccccc2)c([N+](=O)[O-])c1,inactive: 1.61%
18,Cc1ccc(NP(=O)(Oc2ccccc2)Oc2ccccc2)nc1,inactive: -4.57%
19,O=[N+]([O-])c1cccc2n[nH]nc12,inactive: -2.3%
20,CC(=O)N1C2C3N(C(C)=O)C1C1N(C(C)=O)C(C(N1C(C)=O)N3C(C)=O)N2C(C)=O,inactive: 0.7%
21,COc1ccc(C2=NCC(CBr)S2)cc1 (centres undefined),inactive: 2.95%
22,O=[N+]([O-])C1C(O)C(O)C([N+](=O)[O-])C(O)C1O (centres undefined),inactive: 2.62%

row,Structure (SMILES),inhibition
1,O=C(NC(Sc1ccncn1)C(Cl)(Cl)Cl)c1ccccc1 (centres undefined),inactive: -2.23%
2,Oc1ccccc1CNc1ccccn1,inactive: 1.54%
3,CC(C)CC(=O)NC(Sc1ccc(Cl)cc1)C(Cl)(Cl)Cl (centres undefined),inactive: 2.03%
4,Nc1cc(N)c2nonc2c1[N+](=O)[O-],inactive: -6.44%
5,Clc1ccc(Cl)c(NC2=NCC(CBr)S2)c1 (centres undefined),inactive: 1.63%
6,CN1CCCC(OC(=O)C(c2ccccc2)c2ccccc2)C1 (centres undefined),inactive: -4.93%
7,Cc1ccc(OP(=O)(Nc2nccs2)Oc2ccc(C)cc2)cc1,inactive: 5.36%
8,COc1ccccc1OP(=O)(Nc1ccc(C)cn1)Oc1ccccc1OC,inactive: -0.89%
9,Cc1ccc(N/C(=N/P(=O)(N2CCOCC2)N2CCOCC2)N2CCOCC2)cc1,inactive: 1.41%
10,CN(C(=O)Cc1ccc(Cl)c(Cl)c1)[C@H]1CCCC[C@H]1N1CCCC1,inactive: -0.48%
11,NC(=O)c1cc([N+](=O)[O-])cc([N+](=O)[O-])c1N,inactive: 3.34%
12,Nc1cccc2ccc([As](=O)(O)O)cc12,inactive: -2.29%
13,CCN(N=Nc1nonc1N)c1nonc1N,inactive: -0.08%
14,Cc1ccc(NP(=O)(Oc2ccccc2F)Oc2ccccc2F)nc1,inactive: -0.36%
15,CN(C(=O)Cc1ccc(Cl)c(Cl)c1)[C@H]1CCCC[C@@H]1N1CCCC1,inactive: -1.08%
16,CCOP(=O)(Nc1ccccc1)OCC,inactive: -1.48%
17,Cc1cc(SC(NC(=O)c2ccc(F)cc2)C(Cl)(Cl)Cl)ncn1 (centres undefined),inactive: -0.59%
18,CN(C)P(=O)(N(C)C)n1c(Nc2ccccc2)nnc1-c1ccccc1,inactive: -1.16%
19,O=P(Nc1nc2ccc(Cl)cc2s1)(c1ccccc1)c1ccccc1,inactive: -0.86%
20,CCCC1OP(N)(=O)OCC1CC (centres undefined),inactive: 0.63%
21,O=C(O)c1ccccc1[As](=O)(O)O,inactive: 1.13%
22,CC(=O)Nc1ccc([As](=O)(O)O)cc1,inactive: -1.38%

row,Structure (SMILES),inhibition
1,CN(C)C(=O)Oc1noc2ccccc12,inactive: -1.25%
2,O=c1c2cc([N+](=O)[O-])ccc2[nH]c2c([N+](=O)[O-])cc([N+](=O)[O-])cc12,inactive: -0.05%
3,Cc1ccccc1OP(=O)(Nc1ccccn1)Oc1ccccc1C,inactive: -0.67%
4,CC(NC(=O)COC(=O)C(O)(c1ccccc1)c1ccccc1)c1ccccc1 (centres undefined),inactive: 1.1%
5,CCC(=O)N1C2C3N(C(=O)CC)C1C1N(C(=O)CC)C(C(N1C(=O)CC)N3C(=O)CC)N2C(=O)CC,inactive: -4.38%
6,O=C(OC1CN2CCC1CC2)c1ccccc1 (centres undefined),inactive: -0.75%
7,CC(=O)NC(SC(=S)N(CC(C)C)CC(C)C)C(Cl)(Cl)Cl (centres undefined),inactive: -0.51%
8,Cc1ccc(OP(=O)(Nc2ccccn2)Oc2ccc(C)cc2)cc1,inactive: 2.42%
9,COC(=O)c1cc2c(s1)N=C(c1ccccc1)N(C)P2(=O)N1CCOCC1 (centres undefined),inactive: -1.83%
10,O=P1(N(CCCl)CCCl)OCCC2CCCCN21 (centres undefined),inactive: 1.97%
11,Cc1ccc(NP(=O)(Oc2cccc(C)c2)Oc2cccc(C)c2)nc1,inactive: -3.41%
12,c1ccc(-c2nn[nH]n2)c(-c2nn[nH]n2)c1,inactive: 4.12%
13,CCNC(=S)/N=C(\N)N[N+](=O)[O-],inactive: 0.76%
14,O=C(NC1CCS(=O)(=O)C1)NP(=S)(Oc1ccccc1)Oc1ccccc1 (centres undefined),inactive: -0.54%
15,CC(=O)Nc1ccc(Oc2c([N+](=O)[O-])cc([N+](=O)[O-])cc2[N+](=O)[O-])cc1,inactive: 0.79%
16,CC(=O)Nc1ccc([As](=O)(O)O)c(O)c1,inactive: -2.54%
17,C[C@@H]1C=CCP(=O)(Oc2ccccc2)O1 (some centres undefined),inactive: -0.8%
18,C[C@H]1OP(=O)(Oc2ccccc2)C[C@@H]2O[C@@H]21 (some centres undefined),inactive: 0.82%
19,Cc1ccccc1CN(C)C(=O)COC(=O)C(O)(c1ccccc1)c1ccccc1,inactive: 2.59%
20,COC(=O)C1(C)COP(=O)(NCc2ccccc2)OC1 (centres undefined),inactive: 0.76%
